Values quoted from earlier work in US20250041300A1, “PHARMACEUTICAL COMBINATION COMPRISING ABEMACICLIB AND A PI3K AND/OR A MTOR INHIBITOR FOR THE TREATMENT OF MANTLE CELL LYMPHOMA” (Board of Regents, The University of Texas System, priority 2021, published 2025).

Chains of the proteins cited; added tags and fusions are not shown. Lines headed by an entry give the natural chain unless they say otherwise; changes in a name come on top.
UniProt P42338: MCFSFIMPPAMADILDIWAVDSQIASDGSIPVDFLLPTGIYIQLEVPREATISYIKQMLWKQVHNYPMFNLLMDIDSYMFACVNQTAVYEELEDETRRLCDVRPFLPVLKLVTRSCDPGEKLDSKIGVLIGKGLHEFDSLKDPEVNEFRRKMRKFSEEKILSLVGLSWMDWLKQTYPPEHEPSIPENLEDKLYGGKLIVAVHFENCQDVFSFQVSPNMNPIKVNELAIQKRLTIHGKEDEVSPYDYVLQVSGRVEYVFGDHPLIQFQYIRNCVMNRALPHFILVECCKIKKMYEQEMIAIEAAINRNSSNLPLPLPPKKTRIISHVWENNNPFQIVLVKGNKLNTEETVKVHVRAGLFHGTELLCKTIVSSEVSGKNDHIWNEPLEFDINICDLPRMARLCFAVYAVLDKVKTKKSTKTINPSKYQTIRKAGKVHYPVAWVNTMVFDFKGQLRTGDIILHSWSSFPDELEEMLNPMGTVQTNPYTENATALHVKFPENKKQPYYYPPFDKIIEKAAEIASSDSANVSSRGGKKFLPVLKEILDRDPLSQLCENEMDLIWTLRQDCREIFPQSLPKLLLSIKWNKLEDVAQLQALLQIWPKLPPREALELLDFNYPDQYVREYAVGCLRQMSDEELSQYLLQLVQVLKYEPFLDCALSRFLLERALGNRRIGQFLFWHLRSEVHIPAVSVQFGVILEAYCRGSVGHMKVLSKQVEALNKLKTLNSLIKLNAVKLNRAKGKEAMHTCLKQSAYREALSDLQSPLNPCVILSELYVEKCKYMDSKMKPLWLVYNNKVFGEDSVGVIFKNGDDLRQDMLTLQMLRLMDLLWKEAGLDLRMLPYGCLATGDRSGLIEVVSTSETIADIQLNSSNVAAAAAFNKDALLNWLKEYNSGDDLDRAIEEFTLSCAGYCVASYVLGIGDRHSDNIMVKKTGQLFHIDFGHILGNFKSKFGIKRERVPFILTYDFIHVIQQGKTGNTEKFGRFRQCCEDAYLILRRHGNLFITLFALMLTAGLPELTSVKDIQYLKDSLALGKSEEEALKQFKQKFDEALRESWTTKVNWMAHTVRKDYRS
UniProt P42336, whole entry: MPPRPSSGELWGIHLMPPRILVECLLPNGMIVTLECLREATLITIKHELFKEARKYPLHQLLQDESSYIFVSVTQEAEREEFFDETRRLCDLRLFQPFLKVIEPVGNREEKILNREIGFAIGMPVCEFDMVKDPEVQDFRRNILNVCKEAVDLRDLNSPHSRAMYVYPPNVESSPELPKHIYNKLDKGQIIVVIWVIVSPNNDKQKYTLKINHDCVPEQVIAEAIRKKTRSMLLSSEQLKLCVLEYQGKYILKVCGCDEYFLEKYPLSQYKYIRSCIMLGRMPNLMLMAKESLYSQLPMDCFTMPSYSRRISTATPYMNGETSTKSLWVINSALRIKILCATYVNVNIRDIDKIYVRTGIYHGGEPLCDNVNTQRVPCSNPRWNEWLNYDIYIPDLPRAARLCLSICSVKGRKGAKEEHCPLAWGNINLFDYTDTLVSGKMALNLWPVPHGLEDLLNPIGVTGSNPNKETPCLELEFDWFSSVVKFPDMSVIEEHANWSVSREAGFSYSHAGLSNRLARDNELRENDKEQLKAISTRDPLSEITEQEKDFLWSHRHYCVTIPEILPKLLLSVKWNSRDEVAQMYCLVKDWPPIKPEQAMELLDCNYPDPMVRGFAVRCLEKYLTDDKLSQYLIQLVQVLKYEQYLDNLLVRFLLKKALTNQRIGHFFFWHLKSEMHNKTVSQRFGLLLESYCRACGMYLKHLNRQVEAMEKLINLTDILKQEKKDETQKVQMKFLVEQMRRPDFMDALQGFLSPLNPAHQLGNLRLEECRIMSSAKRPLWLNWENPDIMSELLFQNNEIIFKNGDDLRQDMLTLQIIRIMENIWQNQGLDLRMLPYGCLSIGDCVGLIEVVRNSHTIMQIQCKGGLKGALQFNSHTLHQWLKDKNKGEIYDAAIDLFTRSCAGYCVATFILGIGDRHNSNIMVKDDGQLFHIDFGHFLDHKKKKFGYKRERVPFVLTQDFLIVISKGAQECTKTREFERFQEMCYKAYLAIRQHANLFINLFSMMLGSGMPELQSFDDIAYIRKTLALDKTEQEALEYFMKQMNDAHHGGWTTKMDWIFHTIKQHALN
UniProt O00329: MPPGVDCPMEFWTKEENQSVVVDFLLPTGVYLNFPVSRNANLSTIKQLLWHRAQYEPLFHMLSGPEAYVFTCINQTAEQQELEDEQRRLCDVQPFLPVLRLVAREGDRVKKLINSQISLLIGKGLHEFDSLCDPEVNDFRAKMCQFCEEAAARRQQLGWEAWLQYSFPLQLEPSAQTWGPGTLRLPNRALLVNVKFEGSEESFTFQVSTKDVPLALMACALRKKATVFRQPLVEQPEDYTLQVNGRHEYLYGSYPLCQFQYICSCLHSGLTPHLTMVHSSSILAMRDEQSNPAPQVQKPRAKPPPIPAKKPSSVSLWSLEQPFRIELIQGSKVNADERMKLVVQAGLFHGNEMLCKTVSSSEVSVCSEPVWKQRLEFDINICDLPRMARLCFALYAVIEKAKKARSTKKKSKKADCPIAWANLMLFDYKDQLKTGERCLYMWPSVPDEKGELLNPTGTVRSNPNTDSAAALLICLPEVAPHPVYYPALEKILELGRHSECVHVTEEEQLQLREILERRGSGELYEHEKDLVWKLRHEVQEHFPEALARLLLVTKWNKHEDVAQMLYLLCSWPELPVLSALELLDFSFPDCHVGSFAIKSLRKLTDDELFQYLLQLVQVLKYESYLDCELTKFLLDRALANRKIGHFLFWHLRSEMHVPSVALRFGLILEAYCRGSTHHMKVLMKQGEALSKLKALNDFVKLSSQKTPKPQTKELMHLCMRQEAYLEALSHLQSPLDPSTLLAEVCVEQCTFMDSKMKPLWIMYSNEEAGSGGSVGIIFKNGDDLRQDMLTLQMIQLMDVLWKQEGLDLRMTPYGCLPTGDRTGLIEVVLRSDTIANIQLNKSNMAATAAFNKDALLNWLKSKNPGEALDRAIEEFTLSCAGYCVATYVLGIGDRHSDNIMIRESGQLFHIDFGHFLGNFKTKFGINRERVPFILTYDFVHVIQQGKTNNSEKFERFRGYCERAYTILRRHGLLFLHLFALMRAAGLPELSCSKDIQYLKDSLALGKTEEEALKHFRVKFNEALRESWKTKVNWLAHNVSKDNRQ

Assays:
Details in all cases: cited from earlier work
PI3Kβ = PI3Kβ (Homo sapiens, UniProt P42338)
PI3Kα = PI3Kα (Homo sapiens, UniProt P42336)
PI3Kδ = PI3Kδ (Homo sapiens, UniProt O00329)

C[C@@H](Nc1cc(F)cc(F)c1)c1cc(C(=O)N(C)C)cc2c(=O)cc(N3CCOCC3)oc12 [AZD8186, 8-[(1R)-1-(3,5-difluoroanilino)ethyl]-N,N-dimethyl-2-morpholin-4-yl-4-oxochromene-6-carboxamide]
IC50 against PI3Kβ (order of magnitude in words) (PI3Kβ): nanomolar

Cc1nc(-c2cn3c(n2)-c2ccc(-c4cnn(C(C)(C)C(N)=O)c4)cc2OCC3)n(C(C)C)n1 [Taselisib, 2-methyl-2-[4-[2-(5-methyl-2-propan-2-yl-1,2,4-triazol-3-yl)-5,6-dihydroimidazo[1,2-d][1,4]benzoxazepin-9-yl]pyrazol-1-yl]propanamide]
IC50 against PI3Kα (order of magnitude in words) (PI3Kα): nanomolar
IC50 against PI3Kδ (order of magnitude in words) (PI3Kδ): nanomolar
